Data as given in US10022359B2, “1,9-diazaspiro undecane compounds having multimodal activity against pain” (dated 2018).

system: human σ1 receptor and human μ-opioid receptor; test: Human σ1 receptor and human μ-opioid receptor radioligand assays (dual binding); design: μ and σ1 dual binding: key to the marks not given beside the values; settings: combined class for Ki-μ ([3H]-DAMGO, transfected CHO-K1 membranes) and Ki-σ1 ([3H](+)-pentazocine, transfected HEK-293 membranes)

SMILES | μ and σ1 dual binding
Cl.c1ccc(CN2CCC3(CCCCN3c3ccccc3)CC2)cc1 | ++

same assay, conditions: read-out: μ and σ1 dual binding; combined class for Ki-μ ([3H]-DAMGO, transfected CHO-K1 membranes) and Ki-σ1 ([3H](+)-pentazocine, transfected HEK-293 membranes)

SMILES | Ki [nM]
c1ccc(CCN2CCC3(CC2)COCCN3c2ccccc2)cc1 | < 500
COc1cccc(N2CCCCC23CCN(Cc2ccccc2)CC3)c1 | < 500
Oc1cccc(N2CCCCC23CCN(Cc2ccccc2)CC3)c1 | < 500
CC(=O)Nc1cccc(CCN2CCC3(CC2)COCCN3c2ccccc2)c1 | < 500
c1ccc(CCN2CCC3(CCCCN3c3ccccc3)CC2)cc1 | < 500
